Measured values as given in patent publication US9739772B2, “Method of analyzing binding aspect of membrane protein in a living cell” (POSTECH ACADEMY-INDUSTRY FOUNDATION, priority 2013, dated 2017).

What was measured:
[1] = system: endogenous EGFR expressed in COS7 cells; assay: smDIMSA of endogenous EGFR labeled with Alexa Fluor 647-conjugated Fab of mAb 199.12 in a single living COS7 cell; assay type: binding; details: cetuximab 20 μg/ml
Procedure: Fab fragments were generated using a Fab preparation kit (Pierce, 44685). First, a resin conjugated with a proteinase, papain, was mixed with an immunoglobulin antibody in a buffer effective for an enzyme reaction to occur and the reaction was conducted at 37° C. for 5 to 6 hours. After the reaction was completed, the antibody that is cleaved into two Fab fragments and an Fc fragment and the papain resin were centrifuged to separate only a supernatant. A protein A-conjugated resin and the supernatant were mixed, and then centrifuged again, thereby obtaining a purified Fab fragment.
Antibodies were conjugated with an organic fluorescent dye, Alexa Fluor 647, using an Alexa Fluor® 647 antibody labeling kit (Invitrogen). […]
The fluorescence-labeled endogenous EGFR prepared in Example 12.5 was illuminated with 642 nm laser to temporarily turn off the fluorescence of Alexa Fluor 647 to make it possible to observe at a single molecule level, the electron state of the fluorescent molecule was changed with 405 nm laser to allow to randomly turn on the fluorescence, and then fluorescent images were sequentially obtained with 642 nm laser at regular intervals of time (about 50 ms) by an electron multiplying charge coupled device (EM-CCD) ixon3 897, manufactured by Andor Technology, which can detect a signal transmitted from a single fluorescent molecule. […]

[2] = system: membrane protein present on the cell surface of COS7 cells; assay: flow cytometry of Alexa Fluor 647-conjugated antibodies on COS7 cells; assay type: binding
Procedure: In detail, COS7 cells were treated with the Alexa Fluor 647-conjugated antibody to induce binding with a membrane protein, and a fluorescent signal attached to the surface of the cell was observed by flow cytometry, and the results are shown in FIG. 15.

PMT = biological target: T1, PMT (Homo sapiens, UniProt O75695); assay: smDIMSA: change in diffusion coefficient of control PMT-mEos3.2 in living COS7 cells; assay type: binding; details: for change in diffusion coefficient of PMT: COS7 cells expressing PMT-mEos3.2
T1 construct: expressed in transfected cells; host or cells: COS7
Procedure: A plasmid in which PMT is linked with a fluorescent protein was prepared to be used as a control group for Example 1.1. DNA (SEQ ID NO: 5) corresponding to PMT was inserted into the subcloned pcDNA3.1/mEos3.2-his using restriction enzymes such as Xbal (SEQ ID NO: 3) and NotI (SEQ ID NO: 4), thereby constructing pcDNA3.1/PMT-mEos3.2-His.
COS7 cells provided by ATCC were grown in DMEM (Dulbecco's Modified Eagle Medium, Lonza) under conditions of 37° C., 5% CO2, and 95% humidity, with 10% FBS (Gibco), and COS7 cells were transfected with each of the plasmids constructed in Examples 1.1 and 1.2 using Lipofectamine 2000 (Invitrogen) according to the manufacturer's instruction. To reduce the influence of protein overexpression, cells showing especially low expression level were sorted from the cells grown for 24 hours after transfection through flow cytometry. In detail, the transfected cells were washed with PBS to remove debris, detached from a bottom using a detaching buffer, and collected and strained with a cell strainer (40 μm, BD Bioscience). Afterward, the cells showing low expression level were specifically sorted using a MoFlo™ XDP cell sorter (Beckman Coulter).
The coverslip on which the cells were seeded as described in Example 1.3 was placed onto a microscope with a live cell chamber (37° C., 5% CO2) and an electron multiplying charge coupled device (EM-CCD) and observed the cells at a single cell level. The microscope, the Olympus IX71 model, is designed based on total internal reflection fluorescence (TIRF), and can be used to observe only fluorescent molecules at a plasma membrane of a cell closely attached (within about 200 nm from a coverslip) to a round coverslip. mEos3.2 fluorescent proteins were randomly converted from a green form into a red from by cleaving their backbone using 405 nm laser, and an image of the randomly converted red-form mEos3.2 fluorescent protein was obtained by an electron multiplying charge coupled device (EM-CCD), ixon3 897, manufactured by Andor Technology, which can detect a signal emitted from a single fluorescent molecule using 561 nm laser.
The fluorescent images were sequentially obtained at regular intervals of time (about 150 ms), and a centroid was found from the signal of a single molecule present on each image through centroid fitting, and the moving distance per unit time and the trajectory of the fluorescent protein were determined by using multiple tracking between consecutive images, and a mean square displacement (MSD) was calculated by Equation 1.

[3] = system: EGFR activation caused by EGF; assay: western blotting of EGFR and Erk1/2 phosphorylation in COS7 cells with/without EGF; assay type: cell-based; details: EGF-existing environment
[4] = system: endogenous EGFRs expressed in various cell lines; assay: smDIMSA of endogenous EGFRs in COS7, A431, MDA-MB-231, BT20, HCC827 cell lines; assay type: binding; details: five cell lines: COS7, A431, MDA-MB-231, BT20, HCC827; vs non-treatment
Procedure: Afterward, the same cells as previously used were treated with an immunoglobulin antibody or cetuximab, and diffusion coefficients were measured by the same method as described above. Changes in diffusion coefficient were calculated by Equation 3, compared to that under the non-treatment condition, and the results are shown in FIG. 32.

[5] = Example 8, molecular specificity test, before vs after antibody

Question: How did the “change in diffusion coefficient of endogenous EGFR” value [1] turn out when cetuximab was run?
Answer: Its value is “about 40%”.

Question: And the “attachment of Alexa Fluor 647-conjugated antibody to the cell surface (flow cytometry)” value [2]?
Answer: Its value is “relatively well attached to the cell surface”.

Question: What about the “change in diffusion coefficient of PMT” value (PMT; 20 μg/ml, before vs after treatment (Examples 1.5, 7)) of the same substance?
Answer: Its value is “almost no change”.

Question: And the “change in diffusion coefficient of PMT” value (PMT; [5])?
Answer: The value was “no change”.

Question: And the “reduced diffusion coefficient of PMT” value (PMT; Example 10.2, PMT-expressed COS7 cells)?
Answer: Its value is “a reduced diffusion coefficient of PMT is not shown”.

Question: What about the “phosphorylation of EGFR (western blotting)” value [3] of the same substance?
Answer: The value was “prevent phosphorylation of EGFR”.

Question: What about the “change in diffusion coefficient of endogenous EGFR” value [4] of the same substance?
Answer: The value was “about 40%”.

Question: For trastuzumab, which “attachment of Alexa Fluor 647-conjugated antibody to the cell surface (flow cytometry)” value [2] is on record?
Answer: The value was “relatively well attached to the cell surface”.

Question: What about the “change in diffusion coefficient of PMT” value (PMT; [5]) of the same substance?
Answer: Its value is “no change”.
